Earlier results as cited in patent US20080166411A1, “Injectable Depot Formulations And Methods For Providing Sustained Release Of Poorly Soluble Drugs Comprising Nanoparticles” (Pfizer Inc, priority 2006, published 2008).

Settings: orally administered

For insulin, the “fraction of the total dose bioavailable” value is given as under 10%.
